Test results: patent publication US7932382B2, “Conformationally constrained Smac mimetics and the uses thereof” (The Regents of the University of Michigan, priority 2005, dated 2011)

Sequences of proteins named here, by UniProt entry; tags and fusion partners are left off. Residues count along the entry.
UniProt P98170, 241-356: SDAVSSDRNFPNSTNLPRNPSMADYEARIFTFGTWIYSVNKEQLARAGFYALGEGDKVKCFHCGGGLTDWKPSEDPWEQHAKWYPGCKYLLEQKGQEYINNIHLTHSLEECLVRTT

Molecular target: human XIAP-BIR3 protein (residues 241-356) (Homo sapiens, UniProt P98170)
Details: Table 5

CC[C@H](N)C(=O)N[C@H]1CCC[C@H]2CC[C@@H](C(=O)NC(c3ccccc3)c3ccccc3)N2C1=O [Compound 34]
Ki: 0.022 µM
